The target in one experiment is EGF-R d747-749 A750P (Homo sapiens (Human), UniProt P00533, A750P/DEL747-749). Description: Kinase assay (33P FlashPlate) EGF-R d747-749 A750P. The following applies: Table 3. Format: biochemical.
In another experiment the target is EGF-R d752-759 (Homo sapiens (Human), UniProt P00533, DEL752-759). Description: Kinase assay (33P FlashPlate) EGF-R d752-759. Format: biochemical. To be noted: Table 3.

Protein sequences, listed by entry. Tags and fused reporters are not part of them. Chains listed by the source or under a name are the forms on record and can include a tag or linker.
UniProt P00533, other isoform, or with tags, fused parts or gaps A750P/del 1-671/del 747-749 limits assumed: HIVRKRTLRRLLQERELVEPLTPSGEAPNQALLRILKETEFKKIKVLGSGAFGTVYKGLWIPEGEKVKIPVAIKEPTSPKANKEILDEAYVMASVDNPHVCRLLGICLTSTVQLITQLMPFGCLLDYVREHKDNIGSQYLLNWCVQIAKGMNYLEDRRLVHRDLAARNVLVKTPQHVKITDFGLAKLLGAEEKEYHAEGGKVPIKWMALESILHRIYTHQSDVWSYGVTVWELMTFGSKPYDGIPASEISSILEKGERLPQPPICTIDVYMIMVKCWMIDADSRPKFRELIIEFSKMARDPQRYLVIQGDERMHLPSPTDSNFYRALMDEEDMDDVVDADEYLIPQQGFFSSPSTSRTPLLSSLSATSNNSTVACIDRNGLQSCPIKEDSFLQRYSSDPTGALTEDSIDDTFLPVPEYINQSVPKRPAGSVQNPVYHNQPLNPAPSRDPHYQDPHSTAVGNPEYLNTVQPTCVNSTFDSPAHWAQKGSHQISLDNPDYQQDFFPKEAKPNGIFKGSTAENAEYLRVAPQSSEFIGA
UniProt P00533, other isoform, or with tags, fused parts or gaps del 1-671/del 752-759 limits assumed: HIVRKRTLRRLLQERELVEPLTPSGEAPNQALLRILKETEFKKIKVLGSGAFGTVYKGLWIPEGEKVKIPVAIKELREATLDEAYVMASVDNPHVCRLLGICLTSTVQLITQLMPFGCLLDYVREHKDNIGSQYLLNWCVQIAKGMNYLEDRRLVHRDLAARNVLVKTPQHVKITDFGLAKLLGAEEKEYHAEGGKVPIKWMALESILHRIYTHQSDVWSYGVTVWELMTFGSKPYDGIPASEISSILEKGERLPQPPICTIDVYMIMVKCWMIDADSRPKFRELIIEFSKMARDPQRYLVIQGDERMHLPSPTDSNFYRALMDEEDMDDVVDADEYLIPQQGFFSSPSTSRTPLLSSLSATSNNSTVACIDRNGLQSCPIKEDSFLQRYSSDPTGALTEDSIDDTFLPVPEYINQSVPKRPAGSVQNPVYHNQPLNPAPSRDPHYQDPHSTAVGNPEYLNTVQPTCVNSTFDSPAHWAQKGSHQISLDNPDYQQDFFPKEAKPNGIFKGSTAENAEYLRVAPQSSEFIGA

As to `Nc1c(-c2ccc(F)cc2)c(-c2ccncc2)nn1-c1c(Cl)cc(Cl)cc1Cl` [Compound 6], the values for the IC50 against EGF-R d747-749 A750P and against EGF-R d752-759 were 170 nM and 91 nM, respectively.

The term IC50 denotes the concentration needed to halve the response being measured. Low readings indicate greater potency, high ones weaker potency.

Source of the values: US9416123B2, “Kinase modulators for the treatment of cancer” (Synovo GmbH, priority 2011, dated 2016).
